Laboratory results taken from patent US5804410A, “Nucleic acid sequence encoding trypsin-like enzyme and process for producing the enzyme” (Teijin Limited, priority 1994, dated 1998).

Target: T1, trypsin-like enzyme (Homo sapiens, UniProt O60235)
T1 construct: from tissue; host or cells: cough phlegm (sputum) of patients with chronic disease of the respiratory tract
T1 sequence (O60235 187-418): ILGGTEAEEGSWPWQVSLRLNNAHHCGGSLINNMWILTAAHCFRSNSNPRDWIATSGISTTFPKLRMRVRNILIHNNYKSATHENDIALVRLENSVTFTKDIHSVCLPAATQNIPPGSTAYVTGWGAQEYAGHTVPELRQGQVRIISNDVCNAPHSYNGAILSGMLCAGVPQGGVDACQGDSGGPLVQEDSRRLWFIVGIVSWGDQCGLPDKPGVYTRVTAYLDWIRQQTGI
Assay: Digestion of natural substrates detected by SDS-polyacrylamide gel electrophoresis
Assay type: biochemical

## albumin: natural substrate
  Digestion of natural substrate by trypsin-like enzyme: not digested; also recorded: does not digest

“Also recorded” adds a separate entry of the source.
